Values of other authors, collected in patent publication US20120220664A1, “USE OF METFORMIN IN CANCER TREATMENT AND PREVENTION” (priority 2009, published 2012).

Test system: non-transformed cells
Details: typically 10-30 mM metformin; previous experiments (refs 7-9); cited from earlier work

For `CN(C)C(=N)N=C(N)N` [metformin], the “toxicity for non-transformed cells” value is given as “toxic for non-transformed cells”.
